The values that follow come from PubChem BioAssay AID1008 (NMMLSC, 2008).

Chains of the proteins cited; added tags and fusions are not shown.
UniProt Q16548, whole entry: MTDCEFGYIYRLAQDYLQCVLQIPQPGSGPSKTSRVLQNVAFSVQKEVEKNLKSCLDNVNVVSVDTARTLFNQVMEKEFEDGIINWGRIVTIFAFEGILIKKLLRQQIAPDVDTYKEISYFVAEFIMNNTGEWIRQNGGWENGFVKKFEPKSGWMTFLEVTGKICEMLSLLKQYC

A word on the inhibition: it is the drop in the measured response relative to a control, in per cent.

Each structure is given as a SMILES string. The list shows a part of the results, in another mix than the full data. Activity calls are given as the source filed them. Cut-off read from the data, not from the text of the source: active = inhibition above about 40%.

The assay addresses Bcl-2-related protein A1 (Homo sapiens) (UniProt Q16548). The experiment in a line: Bfl-1/Bim complex disruptors – biochemical, multiplexed, bead-based flow cytometry, primary screen (AID 1008).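 Note: 0% = wells without compound plus tracer and 100% = blocker peptide.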 The following applies: Bim-Bfl-1 binding inhibition, at 10 µM, hits give high values. (A flow cytometer gives signals particle by particle.)
As to `Cc1ccc(NP(C)(=O)Oc2ccccc2)c(C)c1` (centres undefined), the inhibition was inactive: -10%.

Consider `COc1ccccc1OP(C)(=O)Nc1ccc(C)cc1` (centres undefined), for which the inhibition was inactive: 10%.

With `CCOC(=O)c1ccc(NP(C)(=O)Oc2ccccc2)cc1` (centres undefined), the inhibition was inactive: 0%.

As for `Cc1cc(C)cc(OP(C)(N)=O)c1` (centres undefined), the inhibition was inactive: -2%. The value for `COc1ccc(OP(C)(=O)Nc2cccc(F)c2)cc1` (centres undefined) was inactive: 0%; that for `COc1ccccc1OP(C)(=O)Nc1cc(Cl)ccc1C` (centres undefined) was inactive: -7%. To `O=[N+]([O-])c1ccc2c(c1)C=Nc1ccccc1O2` belongs inactive: -2%; to `Cc1cccc(C)c1OP(C)(N)=O` (centres undefined), inactive: -3%. To `CC(C)(C)c1ccc(OP(C)(=O)Nc2ccc(SC(F)(F)F)cc2)cc1` (centres undefined) belongs inactive: -1%.

For the compound `CCN(CC)CCCOC(=O)C(O)(c1ccccc1)c1ccccc1`, the inhibition is inactive: -3%. To `CCOC(=O)c1ccc(NP(C)(=O)Oc2ccc(OC)cc2)cc1` (centres undefined) belongs inactive: -11%.

`CCOP(C)(=S)SCC(=O)NC(C)C(=O)O` (centres undefined): the inhibition was inactive: 1%. Take `CP(=O)(Nc1ccccn1)Oc1ccc(Cl)cc1` (centres undefined): the inhibition is inactive: -3%. The value for `CP(=O)(Oc1ccccc1)OC(c1ccccc1)C(F)(F)F` (centres undefined) was inactive: -3%. To `Cc1cccc(C)c1OP(C)(=O)Nc1ccc(SC(F)(F)F)cc1` (centres undefined) belongs inactive: 15%; to `Cc1cc(C)cc(OP(C)(=O)Nc2ccc(SC(F)(F)F)cc2)c1` (centres undefined), inactive: 2%.

On to `CP(=O)(NC(=O)Nc1ccccc1)Oc1ccccc1` (centres undefined), for which the inhibition is inactive: -5%. The value for `CP(=S)(Nn1cnnc1)Oc1ccccc1` (centres undefined) was inactive: 0%; that for `CP(=O)(Nc1ccccc1Br)Oc1ccccc1` (centres undefined) was inactive: 0%. To `COc1ccccc1OP(C)(=O)Nc1ccccc1` (centres undefined) belongs inactive: -5%; to `COc1ccccc1OP(C)(=O)Nc1c(C)cccc1C` (centres undefined), inactive: -2%; to `CN1CCCCC1COC(=O)C1(O)c2ccccc2CCc2ccccc21` (centres undefined), inactive: -3%. The value for `CP(=O)(Nc1ccc(SC(F)(F)F)cc1)Oc1ccccc1` (centres undefined) was inactive: -2%; that for `CCCOc1ccc(NP(C)(=O)Oc2ccc(Cl)cc2)cc1` (centres undefined) was inactive: 0%.

`Cc1nc2ccc3ccccc3c2s1.O=[N+]([O-])c1cc([N+](=O)[O-])c(O)c([N+](=O)[O-])c1`: the inhibition is inactive: -8%. The value for `O=[N+]([O-])c1cc([N+](=O)[O-])c(-n2nnc3ccccc32)c([N+](=O)[O-])c1` was inactive: 35%. The value for `Cc1ccc(C)c(NP(C)(=O)Oc2ccccc2)c1` (centres undefined) was inactive: -5%; that for `CP(=O)(Nc1cccc(Br)c1)Oc1ccccc1` (centres undefined) was inactive: -4%. To `Cc1cc(C)cc(OP(C)(=O)Nc2ccccn2)c1` (centres undefined) belongs inactive: -13%; to `CCOC(=O)c1ccc(NP(C)(=O)Oc2cc(C)cc(C)c2)cc1` (centres undefined), inactive: 0%. With `Cc1cc(C)cc(OP(C)(=O)Nc2ccc(C)cc2C)c1` (centres undefined), the inhibition was inactive: -8%. The value for `CC1=NCCc2c1[nH]c1ccccc21.O=[N+]([O-])c1cc([N+](=O)[O-])c(O)c([N+](=O)[O-])c1` was inactive: 2%; that for `CCN(CC)CCCOC(=O)C(O)(c1ccccc1)C1CCCCC1` (centres undefined) was inactive: -2%; that for `CP(=O)(Nc1ccccc1)Oc1ccc(F)cc1` (centres undefined) was inactive: -3%. To `CCOC(=O)c1ccc(NP(C)(=O)Oc2ccc(F)cc2)cc1` (centres undefined) belongs inactive: 0%; to `COc1ccc(OP(C)(=O)Nc2ccc(SC(F)(F)F)cc2)cc1` (centres undefined), inactive: -3%. To `O=C(OCCN1CCN(CCOCc2ccccc2)CC1)C(O)(c1ccccc1)c1ccccc1` belongs inactive: 3%. On to `CP(=O)(Nc1ccccc1F)Oc1ccccc1` (centres undefined), for which the inhibition was inactive: -13%.

Take `CC(C)c1ccc(OP(C)(=O)Nc2ccc(SC(F)(F)F)cc2)cc1` (centres undefined): the inhibition is inactive: -7%. Take `CP(=O)(Nc1ccc2c(c1)OCCO2)Oc1ccccc1` (centres undefined): the inhibition is inactive: 11%. To `Cc1ccccc1NP(C)(=O)Nc1ccccc1C` belongs inactive: -9%; to `CCOP(C)(=S)SCC(=O)NC(C)(CC)C(=O)O` (centres undefined), inactive: -7%.

On to `O=[N+]([O-])c1cc([N+](=O)[O-])c(NCC2CCS(=O)(=O)C2)c([N+](=O)[O-])c1` (centres undefined), for which the inhibition is inactive: -3%.

For `COc1ccc(OP(C)(=O)Nc2cccc(Br)c2)cc1` (centres undefined), the inhibition was inactive: -22%. To `CN(C)CCOC(=O)C(O)(c1ccccc1)C1CCCCC1` (centres undefined) belongs inactive: 0%; to `COc1ccc(NP(C)(=O)Oc2ccccc2OC)cc1` (centres undefined), inactive: -1%. Turning to `CCOC(=O)c1ccc(NP(C)(=O)Oc2ccc(Cl)cc2)cc1` (centres undefined), the inhibition is inactive: -3%. To `CP(=O)(OC12CC3CC(CC(C3)C1)C2)OC12CC3CC(CC(C3)C1)C2` belongs inactive: -17%; to `CC(C)(C)c1ccc(OP(C)(=O)O)cc1`, inactive: 0%; to `COc1ccccc1OP(C)(=O)Nc1ccccc1Br` (centres undefined), inactive: -7%.

With `CP(=O)(Nc1ccc(Cl)cc1)Oc1ccc(F)cc1` (centres undefined), the inhibition is inactive: -3%.

For `CN(C)C(=O)c1c([N+](=O)[O-])cc([N+](=O)[O-])cc1[N+](=O)[O-]`, the inhibition is inactive: -5%.

For `COc1ccc(OP(C)(=O)Nc2ccc(Br)cc2)cc1` (centres undefined), the inhibition is inactive: -3%.

For `CCN(CC)CC(O)COC(=O)C(O)(c1ccccc1)C1CCCCC1` (centres undefined), the inhibition is inactive: -5%. To `CCc1ccc(OP(C)(=O)Nc2cccnc2)cc1` (centres undefined) belongs inactive: -5%. As for `CP(=O)(Oc1ccccc1)N1CCOC1=O` (centres undefined), the inhibition was inactive: -1%. To `O=[N+]([O-])c1cc([N+](=O)[O-])c(Nc2ccccn2)c([N+](=O)[O-])c1` belongs inactive: -16%; to `Cc1c(NP(C)(=O)Oc2ccc(C(C)C)cc2)c(=O)n(-c2ccccc2)n1C` (centres undefined), inactive: 0%.

For `COc1ccccc1OP(C)(=O)Nc1ccc(C)cc1C` (centres undefined), the inhibition was inactive: -5%. To `CP(=O)(Nc1ccccn1)Oc1ccccc1` (centres undefined) belongs inactive: -5%; to `CCc1ccc(OP(C)(=O)O)cc1`, inactive: -1%. The value for `COc1ccc(OP(C)(=O)Nc2ccccn2)cc1` (centres undefined) was inactive: 0%.

In the case of `CN(C)CCOC(=O)C(O)(c1ccccc1)C1CCCC1` (centres undefined), the inhibition is inactive: -11%. To `Cc1nc2ccc3ccccc3c2o1.O=[N+]([O-])c1cc([N+](=O)[O-])c(O)c([N+](=O)[O-])c1` belongs inactive: 0%; to `CP(=O)(OCCOc1ccccc1)OCCOc1ccccc1`, inactive: -8%. To `CP(=O)(Nc1ccc(Cl)cc1Cl)Oc1ccccc1` (centres undefined) belongs inactive: -4%; to `Cc1cc(C)cc(OP(C)(=O)Nc2cccc(C(F)(F)F)c2)c1` (centres undefined), inactive: -3%. The value for `COc1ccccc1OP(C)(=O)Nc1ccc(C)c(C)c1` (centres undefined) was inactive: -9%. In the case of `COc1ccc(OP(C)(=O)Nc2ccccc2Br)cc1` (centres undefined), the inhibition was inactive: -4%.
